scFv variants of Ab-14 (light chain) against a SARS-CoV-2 spike peptide

Binding partner: SARS-CoV-2 spike HR2 peptide, sequence PDVDLGDISGINAS.

Each scFv is VH, three GGGGS repeats, VL, as in the parent Ab-14, and differs from it in the CDRs of the light chain only.
VH: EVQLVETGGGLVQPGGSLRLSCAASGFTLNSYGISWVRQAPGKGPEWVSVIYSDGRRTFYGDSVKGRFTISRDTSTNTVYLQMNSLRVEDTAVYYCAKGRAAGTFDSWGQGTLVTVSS
VL: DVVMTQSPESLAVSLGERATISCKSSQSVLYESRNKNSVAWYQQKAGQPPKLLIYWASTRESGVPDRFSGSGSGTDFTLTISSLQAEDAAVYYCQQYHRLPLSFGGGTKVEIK

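Phage display of a naive human antibody library on the peptide gave the parent. This is the validation round: designs drawn from the data on random variants, tested in the same kind of assay. Their group label is 14L_GP_Gibbs (GP: Gaussian process model; Gibbs: Gibbs sampling; a sequence that several methods proposed may carry one label only). AlphaSeq pools MATa yeast showing the antibodies with MATalpha yeast showing the peptide. Binding brings cells together so that they mate, and sequencing counts the barcode pairs among the diploids. The ratio of observed to expected reads was calibrated, replicate by replicate, on BCL2-family standards whose Kd was known from biolayer interferometry. Each pool was mated in six replicate cultures.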

The whole VL of each variant is written out. Values are log10 of the apparent Kd in nM; lower means stronger binding. A pair that was not seen in that replicate is written "nd"; this usually means weak binding, but a binder can also be missed. Nonspecific signal, from three strains lacking the peptide, appeared in 4% of pairings of all light chain designs, centred on 2.64 (5% of these signals below 1.59); values are not corrected for it. Also given: how often the same scFv was detected with the empty control strains, with their mean in brackets.

VL,"replicates, log10 nM",signal with controls
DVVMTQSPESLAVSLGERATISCKWSFSVMGESRNKNSVAWYQQKAGQPPKLLIYDASTRESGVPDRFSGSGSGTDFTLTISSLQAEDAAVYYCQQYERLPLSFGGGTKVEIK,-0.02 -0.02 -0.14 -0.06 -0.17 -0.05,0 of 18
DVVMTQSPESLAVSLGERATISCKVDQEWHYGSRNKNSVAWYQQKAGQPPKLLIYNASQRERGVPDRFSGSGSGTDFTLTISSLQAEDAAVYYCQQYHRLPLSFGGGTKVEIK,2.02 3.29 1.38 2.52 2.03 1.78,0 of 18
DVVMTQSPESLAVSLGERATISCKLDQSWWGEWRNKNSVAWYQQKAGQPPKLLIYQASTREQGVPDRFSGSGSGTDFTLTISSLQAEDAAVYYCQQYHRLPLSFGGGTKVEIK,0.35 -0.03 0.53 -0.05 -0.08 0.38,2 of 18 (2.37)
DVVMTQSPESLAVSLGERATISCKSSQLELYESRMKNSVAWYQQKAGQPPKLLIYNASYREDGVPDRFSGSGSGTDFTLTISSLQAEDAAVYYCQQYHRLPLSFGGGTKVEIK,1.18 1.11 1.14 0.98 1.46 1.34,1 of 18 (3.58)
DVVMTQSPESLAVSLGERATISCKLQQLVLYESRNKNSVAWYQQKAGQPPKLLIYDASTRMSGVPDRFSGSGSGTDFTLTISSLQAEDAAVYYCQAYHRLPLSFGGGTKVEIK,0.10 -0.14 -0.06 -0.09 -0.02 0.13,1 of 18 (4.51)
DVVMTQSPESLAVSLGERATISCKSEFSVYYGERNKNSVAWYQQKAGQPPKLLIYQASTRESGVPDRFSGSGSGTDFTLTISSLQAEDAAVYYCQQYHRLPLSFGGGTKVEIK,0.38 0.84 0.62 0.35 0.67 0.34,0 of 18
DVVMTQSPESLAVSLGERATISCKSEQSSPYESRNKNSVAWYQQKAGQPPKLLIYNASLRCSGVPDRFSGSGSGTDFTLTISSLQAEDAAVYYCQQYHRLPLSFGGGTKVEIK,0.08 0.28 -0.02 0.11 0.02 0.17,0 of 18
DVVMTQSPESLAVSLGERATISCKFSQLVGMESRNMNSVAWYQQKAGQPPKLLIYNASTREEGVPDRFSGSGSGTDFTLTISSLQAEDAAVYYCQQYHRLPLSFGGGTKVEIK,nd 0.84 nd 2.71 nd 1.80,0 of 18
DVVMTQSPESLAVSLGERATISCKFSQSNLYEDRNQNNVAWYQQKAGQPPKLLIYNASQREQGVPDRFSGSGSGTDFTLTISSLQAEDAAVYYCQDYHRLPLSFGGGTKVEIK,0.05 -0.02 -0.14 -0.51 -0.24 -0.15,0 of 18
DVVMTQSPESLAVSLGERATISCKCQQSQDYESRNKNAVAWYQQKAGQPPKLLIYNASQRLDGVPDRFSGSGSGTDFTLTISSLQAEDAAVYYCQQYHRLPLSFGGGTKVEIK,0.49 0.38 0.10 0.40 0.25 0.24,2 of 18 (2.10)
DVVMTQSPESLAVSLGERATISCKLDPSDLGESRNKNSVAWYQQKAGQPPKLLIYHASTREIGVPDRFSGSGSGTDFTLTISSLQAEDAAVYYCQQYHQLPLSFGGGTKVEIK,-0.07 -0.14 -0.37 -0.36 -0.23 -0.37,0 of 18
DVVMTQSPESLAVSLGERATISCKLSMGHGYGSRMKNSVAWYQQKAGQPPKLLIYQASQREEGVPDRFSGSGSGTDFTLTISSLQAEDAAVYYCQQYHRLPLSFGGGTKVEIK,0.84 0.90 0.68 0.64 0.77 0.99,3 of 18 (2.85)
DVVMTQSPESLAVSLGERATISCKCSQSVWQESRNKNSVAWYQQKAGQPPKLLIYNASQRERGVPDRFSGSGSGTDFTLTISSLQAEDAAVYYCQQYHRLPLSFGGGTKVEIK,0.58 0.34 0.36 0.78 0.47 0.31,3 of 18 (2.52)
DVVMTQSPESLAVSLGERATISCKQSQSGPYEDRNFNSVAWYQQKAGQPPKLLIYHASYRISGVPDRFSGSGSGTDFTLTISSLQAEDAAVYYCQQYHRLPLSFGGGTKVEIK,1.88 1.26 2.12 1.11 1.54 1.89,1 of 18 (3.10)
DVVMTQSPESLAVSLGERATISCKVPGEQGYESRNKASVAWYQQKAGQPPKLLIYEASTRESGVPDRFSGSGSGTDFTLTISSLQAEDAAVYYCQQYHRLPLSFGGGTKVEIK,0.33 0.05 0.30 0.01 0.09 -0.10,1 of 18 (2.32)
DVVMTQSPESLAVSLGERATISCKLQQMWLYGSRNKNSVAWYQQKAGQPPKLLIYNASQREEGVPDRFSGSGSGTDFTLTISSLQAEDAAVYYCQQYHRLPLSFGGGTKVEIK,0.32 -0.15 -0.07 -0.08 0.04 0.20,2 of 18 (2.68)
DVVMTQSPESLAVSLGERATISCKFSGSFLYWSRNSNAVAWYQQKAGQPPKLLIYEASTRESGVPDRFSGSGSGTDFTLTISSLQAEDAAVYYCQDYHRLPLSFGGGTKVEIK,0.60 1.75 0.57 0.38 0.65 0.67,1 of 18 (1.66)
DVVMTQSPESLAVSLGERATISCKLQQSWEYESRNKNNVAWYQQKAGQPPKLLIYMGSQREVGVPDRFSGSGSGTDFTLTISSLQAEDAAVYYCQQYHRLPLSFGGGTKVEIK,-0.10 -0.64 -0.63 -0.53 -0.23 -0.28,1 of 18 (2.49)
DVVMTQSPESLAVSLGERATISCKLQQMYEYESRWPNSVAWYQQKAGQPPKLLIYHASTRELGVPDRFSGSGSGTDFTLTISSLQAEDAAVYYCQQYHRLPLSFGGGTKVEIK,1.50 1.75 1.95 1.67 1.95 1.71,0 of 18
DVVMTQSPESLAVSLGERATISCKLSQSVLYQSQLKNSVAWYQQKAGQPPKLLIYNAQTRMSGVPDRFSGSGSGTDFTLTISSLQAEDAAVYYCQQYHRLPLSFGGGTKVEIK,-0.07 -0.22 -0.34 -0.32 -0.37 -0.24,2 of 18 (2.93)
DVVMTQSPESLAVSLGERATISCKWSWSWLLESRWDNSVAWYQQKAGQPPKLLIYNASLRESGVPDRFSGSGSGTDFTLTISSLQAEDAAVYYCQQYHRLPLSFGGGTKVEIK,1.48 1.26 1.18 2.08 1.36 1.59,1 of 18 (2.75)
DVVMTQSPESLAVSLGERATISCKQDFSCPGESRNKNSVAWYQQKAGQPPKLLIYDASTRMSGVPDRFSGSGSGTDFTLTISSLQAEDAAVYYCQQYHRLPLSFGGGTKVEIK,-0.12 -0.17 -0.21 -0.36 -0.13 -0.05,2 of 18 (2.97)
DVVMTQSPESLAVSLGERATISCKLVWSDLYESRNKNNVAWYQQKAGQPPKLLIYGVSQRESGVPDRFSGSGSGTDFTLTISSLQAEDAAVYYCQQYHRLPLSFGGGTKVEIK,-0.51 -0.36 -0.52 -0.67 -0.67 -0.50,0 of 18
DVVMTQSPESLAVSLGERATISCKIQQSVLYESLNKNSVAWYQQKAGQPPKLLIYEASTRLSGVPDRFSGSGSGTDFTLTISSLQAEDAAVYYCQQYHRLPLSFGGGTKVEIK,0.89 0.42 0.69 0.47 0.48 0.95,1 of 18 (2.74)
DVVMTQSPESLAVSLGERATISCKVSPSHLYWSRNKNQVAWYQQKAGQPPKLLIYQANTRETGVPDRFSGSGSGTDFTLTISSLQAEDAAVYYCQQYHRLPLSFGGGTKVEIK,2.34 1.92 1.29 1.70 2.02 2.85,1 of 18 (3.09)
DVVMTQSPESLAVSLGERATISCKLSQSDWMESRNPNNVAWYQQKAGQPPKLLIYHASYRESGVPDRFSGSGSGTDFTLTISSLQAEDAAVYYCQQYHRLPLSFGGGTKVEIK,0.34 0.67 0.59 0.15 0.11 0.51,0 of 18

The range of this assay differs from that of the first round, and the authors advise against merging the two. Of ten entries with the parent sequence, four were seen in most replicates (averages 0.34 to 2.37), three in one and three in none, so single entries are noisy. The authors averaged sequences with at least three values out of six and counted those with two or fewer as poor binders.

Data: MIT Lincoln Laboratory AlphaSeq set, Li et al. 2023, doi:10.1038/s41467-023-39022-2, as distributed in FLAb.